For this experiment, the target named is GyrB ATPase activity (E. coli GyrA, E. coli GyrB) (Escherichia coli, UniProt P0AES6). Put plainly: GyrB ATPase inhibition activity assay (ammonium molybdate/malachite green phosphate detection). The class given is biochemical. Particulars: figure quoted may be an average of two or more results. As for the experimental part:
Compounds may be tested for inhibition of GyrB ATPase activity using an ammonium molybdate/malachite green-based phosphate detection assay (Lanzetta, P. A., L. J. Alvarez, P. S. Reinach, and O. A. Candia, 1979, 100: 95-97). Assays can be performed in multiwell plates in 100 μl reactions containing: 50 mM HEPES buffer pH 7.5, 75 mM ammonium acetate, 5.5 mM magnesium chloride, 0.5 mM ethylenediaminetetraacetic acid, 5% glycerol, 1 mM 1,4-Dithio-DL-threitol, 200 nM bovine serum albumin, 5 μg/ml sheared salmon sperm DNA, 2.5 nM E. coli GyrA, 2.5 nM E. coli GyrB, 250 μM ATP, and compound in dimethylsulfoxide. Reactions can be quenched with 150 μl of ammonium molybdate/malachite green detection reagent containing 1.2 mM malachite green hydrochloride, 8.5 mM ammonium molybdate tetrahydrate, and 1 M hydrochloric acid. Plates can be read in an absorbance plate reader at 650 nm and percent inhibition values may be calculated using dimethylsulfoxide (2%)-containing reactions as 0% inhibition and novobiocin-containing (2 μM) reactions as 100% inhibition controls. Compound potency can be based on IC50 measurements determined from reactions performed in the presence of 10 different compound concentrations.
Compound potency may be based on IC50 measurements determined from reactions performed in the presence of 10 different compound concentrations. Compounds of the Examples could be expected to have IC50 values of <200 μg/ml in one or both assays described herein above. For Example the following results were obtained in a GyrB ATPase inhibition activity assay substantially similar to the above wherein the figure quoted may be an average of two or more results

The IC50 is the concentration that inhibits the measured activity by half.

The substance “2-((3S,6s,11R)-11-{[(3,4-Dichloro-5-methyl-1H-pyrrol-2-yl)carbonyl]amino}-3-ethoxy-1,5-dioxa-8-azaspiro[5.5]undec-8-yl)-1,3-thiazole-5-carboxylic acid and 2-((3R,6r,11R)-11-{[(3,4-Dichloro-5-methyl-1H-pyrrol-2-yl)carbonyl]amino}-3-ethoxy-1,5-dioxa-8-azaspiro[5.5]undec-8-yl)-1,3-thiazole-5-carboxylic acid (1:1) [Example 51]” showed an IC50 of less than 122 nM.
Under “2-[(3R,6r,11R)-11-{[(3,4-Dichloro-5-methyl-1H-pyrrol-2-yl)carbonyl]amino}-3-(hydroxymethyl)-1,5-dioxa-8-azaspiro[5.5]undec-8-yl]-1,3-thiazole-5-carboxylic acid and 2-[(3S,6s,11R)-11-{[(3,4-dichloro-5-methyl-1H-pyrrol-2-yl)carbonyl]amino}-3-(hydroxymethyl)-1,5-dioxa-8-azaspiro[5.5]undec-8-yl]-1,3-thiazole-5-carboxylic acid (1:1) [Example 54]” stands less than 9.77 nM; under “Methyl 2-[(3R,6r,11R)-11-{[(3,4-dichloro-5-methyl-1H-pyrrol-2-yl)carbonyl]amino}-3-(hydroxymethyl)-1,5-dioxa-8-azaspiro[5.5]undec-8-yl]-1,3-thiazole-5-carboxylate and methyl 2-[(3S,6s,11R)-11-{[(3,4-dichloro-5-methyl-1H-pyrrol-2-yl)carbonyl]amino}-3-(hydroxymethyl)-1,5-dioxa-8-azaspiro[5.5]undec-8-yl]-1,3-thiazole-5-carboxylate (1:1) [Example 61]”, less than 9.77 nM.

The values are drawn from patent US20100286181A1, “PYRROLE DERIVATIVES WITH ANTIBACTERIAL ACTIVITY” (ASTRAZENECA AB, priority 2006, published 2010).
